By UniProt entry, the sequences of proteins in these tests, tags left out. Where a name states a change or a piece, a line headed by the entry shows the natural chain unless it says otherwise.
UniProt P33534: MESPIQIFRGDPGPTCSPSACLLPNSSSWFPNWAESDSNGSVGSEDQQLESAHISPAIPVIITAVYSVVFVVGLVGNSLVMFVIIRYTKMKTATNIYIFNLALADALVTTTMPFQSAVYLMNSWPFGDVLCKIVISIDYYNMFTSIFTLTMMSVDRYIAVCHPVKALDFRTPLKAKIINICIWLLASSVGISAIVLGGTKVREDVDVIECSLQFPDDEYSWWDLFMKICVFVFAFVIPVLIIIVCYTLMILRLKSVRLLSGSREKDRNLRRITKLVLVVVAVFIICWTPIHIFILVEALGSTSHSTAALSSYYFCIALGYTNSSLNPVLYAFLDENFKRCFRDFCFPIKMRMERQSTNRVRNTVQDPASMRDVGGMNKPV

According to patent publication US11325944B2 (priority 2017, dated 2022):

Biological target: KOR (Mus musculus, UniProt P33534)
Assay: 55° C. warm water tail withdrawal test, antagonism of the KOR agonist U50,488

cyclo[Phe-cis-D-Hyp(Gly)^2-Phe-D-Trp]
antagonism of U50,488 administered i.p. (30 nmol i.c.v. (FIG. 8)): significant antagonism | antagonism of U50,488 administered i.p. (100 nmol i.c.v. (FIG. 8)): significant antagonism | KOR antagonism after subcutaneous administration (30 mg/kg subcutaneous (FIG. 8, FIG. 9)): significant KOR antagonism
